# Target: TAK1/TAB1 (Homo sapiens, UniProt O43318)
# Sequences of proteins named here, by UniProt entry; tags and fusion partners are left off. A change or cut given only in a name is not applied to a line headed by its entry.
# UniProt O43318: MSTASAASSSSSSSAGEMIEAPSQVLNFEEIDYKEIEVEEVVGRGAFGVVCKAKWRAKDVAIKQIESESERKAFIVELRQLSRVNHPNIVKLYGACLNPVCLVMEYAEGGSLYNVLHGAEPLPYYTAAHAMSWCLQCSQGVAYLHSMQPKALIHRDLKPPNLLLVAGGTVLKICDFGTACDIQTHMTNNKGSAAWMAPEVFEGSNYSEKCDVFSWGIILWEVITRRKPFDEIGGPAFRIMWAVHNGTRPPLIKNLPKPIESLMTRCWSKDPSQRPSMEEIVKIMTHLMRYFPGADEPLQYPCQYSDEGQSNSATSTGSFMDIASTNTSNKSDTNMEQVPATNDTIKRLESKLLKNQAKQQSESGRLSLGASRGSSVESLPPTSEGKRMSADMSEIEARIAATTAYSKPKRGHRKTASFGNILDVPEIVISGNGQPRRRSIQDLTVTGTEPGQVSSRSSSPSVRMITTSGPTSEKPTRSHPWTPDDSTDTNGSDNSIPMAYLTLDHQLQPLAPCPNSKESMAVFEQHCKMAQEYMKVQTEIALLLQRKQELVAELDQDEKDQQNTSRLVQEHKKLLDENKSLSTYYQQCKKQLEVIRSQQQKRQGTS
# Experiment: Competitive inhibition of recombinant TAK1-TAB1 assessed as [33P]gamma-ATP incorporation into substrate histone H1 peptide by filter plate assay
# Format: protein-complex assay
smiles,measurement,value
COc1cc(O)c2c(c1)/C=C/C[C@H](O)[C@H](O)C(=O)/C=C\C[C@H](C)OC2=O,IC50,8 nM

# Source: ChEMBL document CHEMBL1759936, “Oxindole derivatives as inhibitors of TAK1 kinase” (Bioorg Med Chem Lett, 2011)
